Assay results published in patent US10285986B2, “Compounds and anti-tumor NQO1 substrates” (The Board of Trustees of the University of Illinois, priority 2011, dated 2019).

Chains of the proteins cited; added tags and fusions are not shown.
UniProt P15559, whole entry: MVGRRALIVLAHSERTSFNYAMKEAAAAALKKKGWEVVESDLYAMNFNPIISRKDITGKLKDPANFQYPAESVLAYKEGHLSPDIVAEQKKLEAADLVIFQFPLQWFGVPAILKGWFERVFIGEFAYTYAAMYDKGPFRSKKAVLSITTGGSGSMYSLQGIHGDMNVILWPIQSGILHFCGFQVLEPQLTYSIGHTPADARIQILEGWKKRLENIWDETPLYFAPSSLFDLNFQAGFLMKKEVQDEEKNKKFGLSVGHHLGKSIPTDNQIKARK

Legend:
[1] = Solubility in organic solvents; settings: Table 1
Method: The solubility of DNQ derivatives in organic solvents was determined by measuring the amount of a given solvent required to dissolve a known amount of compound. Solvent was added to the compound in 50 μL aliquots and the slurry was sonicated. This process was repeated until all the solid had dissolved, leaving a clear red solution. The endpoint was generally very well defined. Solubility was assessed in DMSO, dichloromethane, and 33% methanol in dichloromethane (FIGS. 9, 10, and 11, respectively).

NQO1 = NQO1 (Homo sapiens, UniProt P15559); experiment: NQO1 enzymatic measurements in vitro
Method: As further evidence that the activity of these DNQ derivatives is dependent on their ability to be reduced by NQO1, full enzymatic measurements in vitro were performed. We found a strong correlation between catalytic efficiency of substrates in vitro and their cell culture toxicity. […] This provides strong evidence that the cytotoxicity of DNQ and its derivatives are dependent primarily upon the activity of NQO1 within the cell.

MCF-7 cells = experiment: Cytotoxicity to MCF-7 cells with or without 25 μM dicoumarol (sulforhodamine B assay); settings: Table 1
Method: The NQO1-dependent cytotoxicity of the first set of derivatives was determined in MCF-7 cells which express high levels of NQO1. Cells were exposed to DNQ for 2 hours in the presence or absence of 25 μM DIC. The media was then removed and cells were washed once with media then fresh media was added and the cells were incubated for 72 hours. Cell death was assessed using the sulforhodamine B assay previously described. […] Dodecyl derivative 4-10 was insoluble in DMSO (<0.1 mM) and could not be assessed in this assay. […] As was the case with 4-10, compound 4-13 was insoluble in DMSO. Substitution off the nitrogen appeared well tolerated (4-14 and 4-15).
The DNQ derivatives synthesized were assayed for their toxicity to MCF-7 cells with or without DIC. The data from these experiments is organized in Table 4.2. […] This tolerance of sterically-demanding substituents corresponds with a flexible and promiscuous NQO1 active site. The poor activity of hydroxyl derivative 4-41 may be a result of either poor binding with the largely hydrophobic NQO1 active site or with an excessively strong substrate-enzyme interaction because of hydrogen bonding.

- CH2Cl2:MeOH 2:1 solubility ([1]; CH2Cl2:MeOH 2:1): 10 mM
- CH2Cl2 solubility ([1]; CH2Cl2): 2 mM
- NQO1 Vmax (NQO1): 1540 ± 80 μmol/min/μmol protein
- NQO1 Initial Velocity @ 1 μM (NQO1; 1 μM substrate): 280 ± 40
- Catalytic Efficiency (NQO1; Table 1): 5.9e+06 M⁻¹ s⁻¹
Compound: CCCc1cc(=O)[nH]c2c1C(=O)c1c(C)cc(=O)n(C)c1C2=O [Compound 4-12]
- Fold Protection of MCF7 cells w/ 25 μM dicoumarol (MCF-7 cells): 1.6
